Reference: EP1903056A2, “HLA-A1, -A2 -A3, -A24, -B7, and -B44 tumor associated antigen peptides and compositions” (priority 2002, dated 2004)

Tested on: B44 supertype (B*1801, B*4001, B*4002, B*4402, B*4403, B*4501)
Assay: B44 supertype cross-binding (degeneracy, number of alleles bound)
Parameters: species or system human
Conditions: number of the six B44 supertype alleles bound

| SMILES | Degeneracy |
| --- | --- |
| N=C(N)NCCC[C@H](NC(=O)[C@@H]1CCCN1C(=O)[C@H](CCCNC(=N)N)NC(=O)[C@H](CS)NC(=O)[C@H](CCC(=O)O)NC(=O)[C@@H](N)CO)C(=O)N[C@@H](Cc1ccccc1)C(=O)O [compound 565] | 1 |
| CC(C)C[C@H](NC(=O)[C@H](CC(=O)O)NC(=O)CNC(=O)[C@H](CC(=O)O)NC(=O)[C@H](Cc1ccccc1)NC(=O)[C@@H](NC(=O)[C@H](CC(=O)O)NC(=O)[C@H](CO)NC(=O)CNC(=O)[C@H](C)NC(=O)CNC(=O)[C@H](CCC(=O)O)NC(=O)[C@@H](N)CO)C(C)C)C(=O)O [compound 568] | 1 |
| CC(C)C[C@H](NC(=O)[C@H](Cc1ccc(O)cc1)NC(=O)[C@H](CCC(=O)O)NC(=O)[C@@H]1CCCN1C(=O)[C@H](CC(N)=O)NC(=O)[C@H](CCC(=O)O)NC(=O)[C@@H](N)C(C)C)C(=O)N[C@H](C(=O)N1CCC[C@H]1C(=O)N[C@@H](CCC(N)=O)C(=O)NCC(=O)O)[C@@H](C)O [compound 570] | 1 |
| CSCC[C@H](NC(=O)[C@H](CC(=O)O)NC(=O)[C@H](CC(C)C)NC(=O)[C@H](Cc1c[nH]cn1)NC(=O)[C@@H](NC(=O)[C@H](CCC(=O)O)NC(=O)[C@@H]1CCCN1)[C@@H](C)O)C(=O)O [compound 573] | 0 |

Biological target: HLA-A*0101 (Homo sapiens, UniProt P04439, A114D/A174V/A182V/D101N/D185E/E176A/E190D/L180R/Q94H/R68K/S129P/T187R/V100A/V91M/W191G)
Assay: Class I peptide-binding assay, A*0101
Conditions: binding affinity (IC50) to HLA-A*0101, running text

| SMILES | IC50 |
| --- | --- |
| CSCC[C@H](NC(=O)[C@H](CCCCN)NC(=O)[C@H](CC(N)=O)NC(=O)[C@H](CC(C)C)NC(=O)[C@H](C)NC(=O)[C@@H]1CCCN1C(=O)[C@H](CO)NC(=O)[C@H](Cc1ccc(O)cc1)NC(=O)[C@@H](N)[C@@H](C)O)C(=O)N[C@@H](Cc1ccccc1)C(=O)O [p53.125] | ≤ 100 nM |

Biological target: HLA-A*2402 (Homo sapiens, UniProt P04439, D101N/D140Y/D185E/E176V/E190D/F33S/G103R/G107R/I119L/I121M/I306V/K335N/L105A/L180Q/L300P/N151K/N90K/Q86E/Q94H/R106L/R138H/R89G/T104I/T345S/V100E/W191G/Y123F)
Assay: Class I peptide-binding assay, A*2402
Conditions: not given

| increase in HLA-A*2402 binding affinity of analog over wildtype | SMILES |
| --- | --- |
| > 18 fold | CC(C)C[C@H](NC(=O)[C@H](CCC(=O)O)NC(=O)[C@H](CCCNC(=N)N)NC(=O)[C@H](Cc1ccc(O)cc1)NC(=O)[C@@H](N)CCCNC(=N)N)C(=O)N[C@H](C(=O)N[C@@H](CO)C(=O)N[C@@H](CCC(=O)O)C(=O)N[C@@H](Cc1ccccc1)C(=O)O)C(C)C [HER2/neu.968Y2] |

Same assay, conditions: A*2401, Table 19b, Her2/neu-derived A24 binders

| IC50 | SMILES |
| --- | --- |
| 1090 nM | CC(C)[C@H](NC(=O)[C@H](CC(=O)O)NC(=O)[C@H](CO)NC(=O)[C@H](CCC(N)=O)NC(=O)[C@H](Cc1c[nH]cn1)NC(=O)[C@@H](NC(=O)[C@H](Cc1ccccc1)NC(=O)[C@@H](N)CCCNC(=N)N)[C@@H](C)O)C(=O)N[C@@H](Cc1c[nH]c2ccccc12)C(=O)O [compound 299] |
| 3750 nM | CSCC[C@H](NC(=O)[C@@H](N)CCCNC(=N)N)C(=O)N[C@@H](C)C(=O)N[C@@H](CCCNC(=N)N)C(=O)N[C@@H](CC(=O)O)C(=O)N1CCC[C@H]1C(=O)N[C@@H](CCC(N)=O)C(=O)N[C@@H](CCCNC(=N)N)C(=O)N[C@@H](Cc1ccccc1)C(=O)O [compound 311] |

Same assay, conditions: A*[…], Table 19a, CEA-derived A24 binders

| SMILES | IC50 |
| --- | --- |
| CC[C@H](C)[C@H](NC(=O)[C@H](CO)NC(=O)[C@@H]1CCCN1C(=O)[C@H](CCCCN)NC(=O)[C@@H]1CCCN1C(=O)[C@H](CC(C)C)NC(=O)[C@H](CCC(=O)O)NC(=O)[C@@H]1CCCN1C(=O)[C@H](Cc1ccc(O)cc1)NC(=O)[C@@H](N)C(C)C)C(=O)O [compound 259] | 1520 nM |
| CC(C)C[C@H](NC(=O)[C@H](CCC(=O)O)NC(=O)[C@@H]1CCCN1C(=O)[C@H](Cc1ccc(O)cc1)NC(=O)[C@@H](N)C(C)C)C(=O)N1CCC[C@H]1C(=O)N[C@@H](CCCCN)C(=O)N1CCC[C@H]1C(=O)N[C@@H](CO)C(=O)N[C@@H](Cc1ccccc1)C(=O)O [compound 260] | 106 nM |
| CC(C)C[C@H](N)C(=O)N[C@@H](Cc1ccc(O)cc1)C(=O)NCC(=O)N1CCC[C@H]1C(=O)N[C@@H](CC(=O)O)C(=O)N[C@@H](C)C(=O)N1CCC[C@H]1C(=O)N[C@H](C(=O)N[C@@H](Cc1ccccc1)C(=O)O)[C@@H](C)O [compound 264] | 63 nM |

More lines, now with the values ahead:

| IC50 | SMILES |
| --- | --- |
| 191 nM | CC[C@H](C)[C@H](NC(=O)[C@H](CS)NC(=O)[C@H](Cc1ccc(O)cc1)NC(=O)[C@@H](N)CCCNC(=N)N)C(=O)N1CCC[C@H]1C(=O)N[C@@H](Cc1c[nH]c2ccccc12)C(=O)N[C@@H](CCC(N)=O)C(=O)N[C@@H](CCCNC(=N)N)C(=O)N[C@@H](Cc1ccccc1)C(=O)O [compound 248] |
| 2.2 nM | CC[C@H](C)[C@H](N)C(=O)N[C@@H](Cc1ccc(O)cc1)C(=O)N1CCC[C@H]1C(=O)N[C@@H](CC(N)=O)C(=O)N[C@@H](C)C(=O)N[C@@H](CO)C(=O)N[C@@H](CC(C)C)C(=O)N[C@@H](CC(C)C)C(=O)N[C@@H](Cc1ccccc1)C(=O)O [compound 257] |
| 63 nM | CC(C)C[C@H](N)C(=O)N[C@@H](Cc1ccc(O)cc1)C(=O)N[C@@H](Cc1c[nH]c2ccccc12)C(=O)N[C@H](C(=O)N[C@@H](CC(N)=O)C(=O)N[C@@H](CC(N)=O)C(=O)N[C@@H](CCC(N)=O)C(=O)N[C@@H](CO)C(=O)N[C@@H](Cc1ccccc1)C(=O)O)C(C)C [compound 262] |
| 27 nM | CC(C)[C@H](N)C(=O)N[C@@H](Cc1ccc(O)cc1)C(=O)N[C@@H](C)C(=O)N[C@@H](CCC(=O)O)C(=O)N1CCC[C@H]1C(=O)N1CCC[C@H]1C(=O)N[C@@H](CCCCN)C(=O)N1CCC[C@H]1C(=O)N[C@@H](Cc1ccccc1)C(=O)N[C@@H](Cc1ccccc1)C(=O)O [compound 271] |
| 109 nM | CC[C@H](C)[C@H](NC(=O)[C@H](CCCNC(=N)N)NC(=O)[C@H](Cc1c[nH]c2ccccc12)NC(=O)[C@H](CO)NC(=O)[C@H](Cc1ccc(O)cc1)NC(=O)[C@@H](N)CCC(N)=O)C(=O)N[C@@H](CC(N)=O)C(=O)NCC(=O)N[C@@H](Cc1ccccc1)C(=O)O [compound 289] |
| 8.6 nM | CC(C)[C@H](NC(=O)[C@H](Cc1ccccc1)NC(=O)[C@H](CS)NC(=O)[C@H](C)NC(=O)[C@H](Cc1ccc(O)cc1)NC(=O)[C@@H](N)[C@@H](C)O)C(=O)N[C@@H](CO)C(=O)N[C@@H](CC(N)=O)C(=O)N[C@@H](Cc1ccccc1)C(=O)O [compound 291] |

Same assay, conditions: A*[…], Table 19c, Mage2/3-derived A24 binders

| SMILES | IC50 |
| --- | --- |
| CC[C@H](C)[C@H](NC(=O)[C@H](CC(C)C)NC(=O)[C@H](C)NC(=O)[C@H](CCCNC(=N)N)NC(=O)[C@@H]1CCCN1C(=O)CNC(=O)[C@H](Cc1c[nH]c2ccccc12)NC(=O)[C@H](CC(C)C)NC(=O)[C@H](Cc1ccccc1)NC(=O)[C@@H](N)CCC(=O)O)C(=O)O [compound 329] | 1240 nM |
| CC[C@H](C)[C@H](N)C(=O)N[C@@H](Cc1ccc(O)cc1)C(=O)N[C@@H](CO)C(=O)N[C@@H](CCCCN)C(=O)N[C@@H](C)C(=O)N[C@@H](CO)C(=O)N[C@@H](CO)C(=O)N[C@@H](CO)C(=O)N[C@@H](Cc1ccccc1)C(=O)O [compound 341] | 375 nM |
| CC[C@H](C)[C@H](NC(=O)[C@H](Cc1ccc(O)cc1)NC(=O)[C@@H](N)CC(C)C)C(=O)N[C@@H](Cc1ccccc1)C(=O)N[C@@H](C)C(=O)N[C@H](C(=O)N[C@@H](CS)C(=O)N[C@@H](CC(C)C)C(=O)NCC(=O)N[C@@H](CC(C)C)C(=O)O)[C@@H](C)O [compound 343] | 3430 nM |

Now from value to molecule:

| IC50 | SMILES |
| --- | --- |
| 15 nM | CC[C@H](C)[C@H](NC(=O)[C@@H](NC(=O)[C@@H](NC(=O)[C@H](CO)NC(=O)[C@H](Cc1ccc(O)cc1)NC(=O)[C@@H](N)CO)[C@@H](C)O)[C@@H](C)O)C(=O)N[C@@H](CC(N)=O)C(=O)N[C@@H](Cc1ccc(O)cc1)C(=O)N[C@H](C(=O)N[C@@H](Cc1ccccc1)C(=O)O)[C@@H](C)O [compound 314] |
| 15 nM | CC[C@H](C)[C@H](N)C(=O)N[C@@H](Cc1ccc(O)cc1)C(=O)N[C@@H](CO)C(=O)N[C@@H](CCCCN)C(=O)N[C@@H](C)C(=O)N[C@@H](CO)C(=O)N[C@@H](CCC(=O)O)C(=O)N[C@@H](Cc1ccc(O)cc1)C(=O)N[C@@H](Cc1ccccc1)C(=O)O [compound 320] |
| 2.9 nM | CC[C@H](C)[C@H](NC(=O)[C@H](CC(C)C)NC(=O)[C@H](CC(C)C)NC(=O)CNC(=O)[C@@H](NC(=O)[C@H](CCCCN)NC(=O)[C@@H]1CCCN1C(=O)[C@H](Cc1ccc(O)cc1)NC(=O)[C@@H](N)C(C)C)[C@@H](C)O)C(=O)N[C@@H](Cc1ccccc1)C(=O)O [compound 328] |
| 10 nM | CC(C)C[C@H](NC(=O)[C@H](C)NC(=O)[C@H](CCCNC(=N)N)NC(=O)[C@@H]1CCCN1C(=O)CNC(=O)[C@H](Cc1c[nH]c2ccccc12)NC(=O)[C@H](CC(C)C)NC(=O)[C@H](Cc1ccc(O)cc1)NC(=O)[C@@H](N)CCC(=O)O)C(=O)N[C@@H](Cc1ccccc1)C(=O)O [compound 330] |
| 2450 nM | CC(C)C[C@H](NC(=O)[C@H](CC(=O)O)NC(=O)[C@@H]1CCCN1C(=O)[C@H](Cc1ccccc1)NC(=O)[C@@H](N)[C@@H](C)O)C(=O)N[C@@H](CCC(=O)O)C(=O)N[C@@H](CO)C(=O)N[C@@H](CCC(=O)O)C(=O)N[C@@H](Cc1ccccc1)C(=O)O [compound 334] |
| 3.4 nM | CC(C)[C@H](NC(=O)[C@@H]1CCCN1C(=O)[C@H](Cc1ccccc1)NC(=O)[C@H](Cc1ccccc1)NC(=O)[C@H](Cc1ccc(O)cc1)NC(=O)[C@H](CCC(N)=O)NC(=O)[C@H](Cc1ccc(O)cc1)NC(=O)[C@@H](N)CC(N)=O)C(=O)N[C@@H](Cc1ccccc1)C(=O)O [compound 337] |
| 1.2 nM | CC[C@H](C)[C@H](N)C(=O)N[C@@H](Cc1ccc(O)cc1)C(=O)N1CCC[C@H]1C(=O)N[C@@H](CCCCN)C(=O)N[C@@H](C)C(=O)NCC(=O)N[C@@H](CC(C)C)C(=O)N[C@@H](CC(C)C)C(=O)N[C@H](C(=O)N[C@@H](Cc1ccccc1)C(=O)O)[C@@H](C)CC [compound 348] |

Same assay, conditions: binding affinity (IC50) to HLA-A*2402, running text

| SMILES | IC50 |
| --- | --- |
| CSCC[C@H](NC(=O)[C@H](CCCCN)NC(=O)[C@H](CC(N)=O)NC(=O)[C@H](CC(C)C)NC(=O)[C@H](C)NC(=O)[C@@H]1CCCN1C(=O)[C@H](CO)NC(=O)[C@H](Cc1ccc(O)cc1)NC(=O)[C@@H](N)[C@@H](C)O)C(=O)N[C@@H](Cc1ccccc1)C(=O)O [p53.125] | ≤ 100 nM |

Same assay, conditions: result in words

| change of HLA-A*2402 binding affinity of analog | SMILES |
| --- | --- |
| significantly improved | CC(C)C[C@H](NC(=O)[C@H](CCC(=O)O)NC(=O)[C@H](CCCNC(=N)N)NC(=O)[C@H](Cc1ccc(O)cc1)NC(=O)[C@@H](N)CCCNC(=N)N)C(=O)N[C@H](C(=O)N[C@@H](CO)C(=O)N[C@@H](CCC(=O)O)C(=O)N[C@@H](Cc1ccccc1)C(=O)O)C(C)C [HER2/neu.968Y2] |
